{"source": "patent US20130344053", "proteins": {"B1": {"name": "Insulin receptor beta (IRK), 48 kDa cytoplasmic domain of the beta-subunit (protein)", "chain": "RKRQPDGPLGPLYASSNPEYLSASDVFPCSVYVPDEWEVSREKITLLRELGQGSFGMVYEGNARDIIKGEAETRVAVKTVNESASLRERIEFLNEASVMKGFTCHHVVRLLGVVSKGQPTLVVMELMAHGDLKSYLRSLRPEAENNPGRPPPTLQEMIQMAAEIADGMAYLNAKKFVHRDLAARNCMVAHDFTVKIGDFGMTRDIYETDYYRKGGKGLLPVRWMAPESLKDGVFTTSSDMWSFGVVLWEITSLAEQPYQGLSNEQVLKFVMDGGYLDQPDNCPERVTDLMRMCWQFNPKMRPTFLEIVNLLKDDLHPSFPEVSFFHSEENKAPESEELEMEFEDMENVPLDRSSHCQREEAGGRDGGSSLGFKRSYEEHIPYTHMNGGKKNGRILTLPRSNPS"}}, "molecular_target": "T1, GST-hBVR fusion protein, wild type (human biliverdin reductase fused to glutathione-S-transferase)", "T1 chain": "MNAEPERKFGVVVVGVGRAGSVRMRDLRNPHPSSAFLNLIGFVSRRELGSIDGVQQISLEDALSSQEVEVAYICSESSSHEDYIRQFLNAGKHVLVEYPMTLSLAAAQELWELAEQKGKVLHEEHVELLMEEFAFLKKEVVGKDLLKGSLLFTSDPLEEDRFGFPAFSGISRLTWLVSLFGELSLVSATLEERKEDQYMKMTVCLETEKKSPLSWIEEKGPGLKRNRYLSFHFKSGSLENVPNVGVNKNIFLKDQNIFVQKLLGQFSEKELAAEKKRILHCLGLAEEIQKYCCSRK"}
{"protein": "B1", "values": [{"measurement": "BVR phosphorylation by IRK (32P, SDS-PAGE, autoradiography, time course)", "result": "in the presence of IRK, BVR phosphorylation was detected when assessed at 1 h, and gradually increased up to 4 h"}]}
